Assays:
[1] = molecular target: Acidithiobacillus ferrooxidans AfArsR variant C102S (Cys102 to serine) (Acidithiobacillus ferrooxidans, UniProt B7J952, C102S)
[2] = system: Acidithiobacillus ferrooxidans AfArsR variant C102S (biosensor co-cultured with Burkholderia sp. MR1); assay: Biosensor co-cultured with Burkholderia sp. MR1: gfp response to arsenicals; type: cell-based; details: M9 medium, 2 μM arsenical, 8 hours
[3] = molecular target: Acidithiobacillus ferrooxidans AfArsR repressor, wild type (Acidithiobacillus ferrooxidans, UniProt B7J952); details: read-out: half-maximal concentration decreasing anisotropy of AfArsR-DNA complex; fluorescein-labeled arsO DNA, pH7.5, anaerobic (FIGS. 11A, 11B)
[4] = system: Acidithiobacillus ferrooxidans AfArsR, wild type (pBADarsR / pACYC184-parsO-gfp biosensor in E. coli AW3110)
[5] = system: Acidithiobacillus ferrooxidans AfArsR variant C102S (Cys102 eliminated by mutation; pBADarsR / parsO-gfp biosensor in E. coli AW3110)
[6] = system: AfarsR-gfp biosensor (E. coli strain AW3110 bearing pBADarsR and pACYC184-parsO-gfp); assay: In vivo biosensor assay, gfp expression, wild type AfarsR; type: cell-based; details: for biosensor response (gfp derepression): 0.05% arabinose, wild type repressor; for induction of gfp expression: subtoxic concentrations
[7] = system: C102S mutant biosensor (E. coli strain AW3110); assay: In vivo biosensor assay, gfp expression, C102S AfarsR; type: cell-based; details: for biosensor response (gfp derepression): 0.05% arabinose, C102S mutant repressor; for EC50: read-out: apparent half maximal concentration for induction, mutant biosensor, FIG. 13C
[8] = system: C102S biosensor co-cultured with Burkholderia sp. MR1; assay: Biosensor co-cultured with Burkholderia sp. MR1 (in situ reduction); type: cell-based, E. coli / Burkholderia sp. MR1; details: 2 μM, M9 medium, 8 hours, 0.05% arabinose
[9] = system: wild type AfArsR; assay: Fluorescence anisotropy: dissociation of wild type AfArsR from DNA by arsenicals; type: binding, Acidithiobacillus ferrooxidans
[10] = system: AfArsR C102S mutant; assay: Fluorescence anisotropy: dissociation of C102S AfArsR from DNA by arsenicals; type: binding, Acidithiobacillus ferrooxidans; details: for response of C102S AfArsR (concentration range): slightly higher than the wild type
[11] = system: arsenic hypersensitive E. coli strain AW3110
[12] = system: E. coli AW3110 biosensor cells; assay: Toxicity of arsenicals to biosensor cells; details: FIG. 15 (M9 medium, overnight) / FIG. 16C (disk test)

By UniProt entry, the sequences of proteins in these tests, tags left out. Residues count along the entry.
UniProt B7J952, 1-118 C102S: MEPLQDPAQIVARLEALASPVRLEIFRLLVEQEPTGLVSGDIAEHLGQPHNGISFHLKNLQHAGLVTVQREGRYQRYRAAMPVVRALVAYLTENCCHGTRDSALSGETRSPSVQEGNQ
UniProt B7J952, 1-118: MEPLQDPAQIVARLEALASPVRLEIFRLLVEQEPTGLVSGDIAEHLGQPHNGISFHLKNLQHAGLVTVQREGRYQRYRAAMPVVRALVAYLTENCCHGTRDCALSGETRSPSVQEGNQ

Compound	EC50 [3] [nM]	induction / derepression of gfp expression [5]	biosensor response (gfp derepression) [6]	biosensor response (gfp derepression) [7]	EC50 [7] [nM]	response of C102S AfArsR (concentration range) [10]	induction of gfp expression ([6]; 0.2% arabinose)	further results
O=[N+]([O-])c1cc([As](O)O)ccc1O	300	proportional to the concentration of the inducer	–	–	–	–	–	response (anisotropy), concentration range ([1]; FIG. 11C): sub-micromolar range; response to MAs(III), Rox(III) and PhAs(III) relative to wild type ([1]; FIG. 11C compared with FIG. 11A): slightly higher than the wild type; response of co-cultured biosensor [2]: did respond; induction / derepression of gfp expression [4]: proportional to the concentration of the inducer; EC50 ([5]; read-out: apparent half maximal concentration for induction, FIG. 13C): 250 nM
trivalent roxarsone	–	–	proportional to the concentration of the inducer	proportional to the concentration of the inducer	250	sub-micromolar range	–	response of biosensor co-cultured with Burkholderia [8]: did respond; EC50 ([9]; read-out: half-maximal concentration for decrease of anisotropy, wild type AfArsR-DNA complex, FIG. 11A/B): 300 nM; toxicity, disk test ([11]; LB plate, overnight, FIG. 16C): toxic
O=[As]c1ccccc1 (stereo not shown)	300	–	–	–	–	–	–	toxicity to biosensor cells [12]: toxic
C[As](=O)(O)O	–	nor detect	unresponsive	unresponsive	–	–	not inducers	effect on anisotropy of the AfArsR-DNA complex ([9]; wild type AfArsR): no effect
methylarsenite	–	–	proportional to the concentration of the inducer	proportional to the concentration of the inducer	3000	sub-micromolar range	induced gfp expression	range of nearly linear response ([6]; 0.5% arabinose): 2 to 8 µM; EC50 ([6]; read-out: apparent half maximal concentration required for induction, 0.2% arabinose, FIG. 6B): 3000 nM; fluorescence of Cys102-lacking biosensor ([7]; FIG. 10): high levels of fluorescence; binding by purified AfArsR C102S mutant ([10]; compared with wild type AfArsR, FIGS. 11C and 11D): same binding affinity; concentration in excess of which toxic ([11]; strain AW3110): 10^−5 M

Reference: US10640802B2 (priority 2012, dated 2020)
